Measured values published in patent US20210054047A1, “NOVEL ANTICANCER FUSION PROTEIN AND USE THEREOF” (KOREA INSTITUTE OF SCIENCE AND TECHNOLOGY, priority 2018, published 2021).

Assay: DOX loading by fluorescence intensity
Type: physicochemical
Protocol: DOX (Sigma-Aldrich) was pre-incubated with CuCl2 at a 2:1 molecular ratio of DOX to Cu^2+ at room temperature for 20 min, as described previously. TTPNs were incubated with Cu(II)-DOX solution (1:200 molecular ratio of TTPNs to DOX) at 4° C. overnight. Free DOX was removed by dialysis and the encapsulation of DOX into TTPNs was analyzed by SEC using a Superdex 200 column (GE Healthcare). The amount of loaded DOX in TTPNs was determined by measuring fluorescence intensity of DOX using a DS-11 FX+ Fluorometer (DeNovix). After the disassembly process of DOX-TTPNs by mixing with 0.5 N HCl for 1 hour, the number of DOX molecules was quantified relatively using a standard curve of DOX fluorescence intensity.

Q: For “wtFTN: wild type ferritin nanocage (human ferritin heavy chain)”, which “DOX encapsulated in inner cavity” value is on record?
A: Its value is “up to 40 molecules of DOX”.
